Experimental data published in patent US6809119B2, “Branched chain amino acid-dependent aminotransferase inhibitors and their use in the treatment of neurodegenerative diseases” (Warner-Lambert Company LLC, priority 2001, dated 2004).

The chains behind the UniProt entries cited, without tags or fusion partners.
UniProt P54687, whole entry: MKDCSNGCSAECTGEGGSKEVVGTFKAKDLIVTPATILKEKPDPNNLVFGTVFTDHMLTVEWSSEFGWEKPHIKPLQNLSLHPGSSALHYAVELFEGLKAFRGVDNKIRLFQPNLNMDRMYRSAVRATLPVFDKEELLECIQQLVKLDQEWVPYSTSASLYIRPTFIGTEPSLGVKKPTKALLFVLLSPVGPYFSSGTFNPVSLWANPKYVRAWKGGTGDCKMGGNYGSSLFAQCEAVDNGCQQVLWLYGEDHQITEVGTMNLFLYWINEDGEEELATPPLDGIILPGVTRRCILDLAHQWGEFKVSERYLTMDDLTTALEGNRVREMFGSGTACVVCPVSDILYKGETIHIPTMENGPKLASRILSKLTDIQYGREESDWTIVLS

Target: human Branched Chain Amino Acid Aminotransferase cytosolic form (hBCATc) (Homo sapiens, UniProt P54687)
Assay: In vitro coupled enzyme assay, human BCAT cytosolic form
Conditions: read-out: rhBCATc; inhibition of recombinant human BCATc; coupled glutamate dehydrogenase/NADH assay, 37° C., pH 7.8
Procedure: In vitro enzyme assay: human Branched Chain Amino Acid Aminotransferase cytosolic form (hBCATc) and mitochondrial form (hBCATm) as well as rat BCAT cytosolic form were assayed at 37° C. in 25 mM phosphate buffer pH 7.8. In addition, 2 mM DTT and 12.5 mM EDTA were added to the assay mixture. A coupling enzyme assay was used to monitor the production of glutamate. The formation of NADH from NAD+at […] was followed on a 96-well plate Molecular Devices plate reader. The following components were used in this coupled assay: 4 mM ADP, 1 mM NAD+, 750 μM L-Leucine, 500 μM a-ketoglutarate, 10 μM pyridoxal phosphate, 1 unit glutamate dehydrogenase, and 1.25 μg of the appropriate BCAT enzyme. Inhibitions by compounds were assayed by adding various concentrations to this coupled assay procedure as a DMSO stock up to a 5% v/v DMSO/buffer ratio.
Enzyme Preparation: humanBCATc and ratBCATc were expressed in BL21(DE3) cells. A growing culture of cells was induced with 1 mM IPTG at room temperature overnight. These cells were harvested by centrifugation at 10,000 g for 20 minutes. The supernatant was discarded, and the cells were stored at −80° C. until needed. The protein was purified by the following method. […]

COc1ccc(S(=O)(=O)Nc2ccc(C(=O)NNS(=O)(=O)c3ccccc3)cc2)cc1OC
IC50: 10 µM
